Test results: ChEMBL document CHEMBL4715860, “4-(Difluoromethyl)-5-(4-((3R,5S)-3,5-dimethylmorpholino)-6-((R)-3-methylmorpholino)-1,3,5-triazin-2-yl)pyridin-2-amine (PQR626), a Potent, Orally Available, and Brain-Penetrant mTOR Inhibitor for the Treatment of Neurological Disorders” (J Med Chem, 2020)

Experiment: Metabolic stability in human hepatocytes assessed as half-life at 5 uM incubated for 3 hrs by LC-MS analysis
Assay type: ADME, cell-based, Hepatocyte
Outline: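 Cryopreserved primary hepatocytes in suspension from CD-1 mouse, Sprague-Dawley rat, Beagle dog and human. Compound at 5 μM final (from 10 mM DMSO stock). Samples taken at 0, 15, 60, 90 and 180 min and quenched with ACN plus internal standard. Parent quantified by LC-MS. Hepatocyte-free medium incubations served as negative control; 7-ethoxycoumarin as positive control. Duplicate; CLint per 10^6 cells and t1/2.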

Question: For `C[C@@H]1COCCN1c1nc(-c2cnc(N)cc2C(F)F)nc(N2[C@H](C)COC[C@@H]2C)n1`, which half-life at 5 µM is on record?
Answer: The half-life at 5 µM was 2.73 h.
